Consider 2 compounds from ChEMBL document CHEMBL1157818, “Conformationally constrained kappa receptor agonists: stereoselective synthesis and pharmacological evaluation of 6,8-diazabicyclo[3.2.2]nonane derivatives” (J Med Chem, 2010).

Amino acid sequences for entries named in this document (tags omitted). A change or cut given only in a name is not applied to a line headed by its entry.
UniProt P41144: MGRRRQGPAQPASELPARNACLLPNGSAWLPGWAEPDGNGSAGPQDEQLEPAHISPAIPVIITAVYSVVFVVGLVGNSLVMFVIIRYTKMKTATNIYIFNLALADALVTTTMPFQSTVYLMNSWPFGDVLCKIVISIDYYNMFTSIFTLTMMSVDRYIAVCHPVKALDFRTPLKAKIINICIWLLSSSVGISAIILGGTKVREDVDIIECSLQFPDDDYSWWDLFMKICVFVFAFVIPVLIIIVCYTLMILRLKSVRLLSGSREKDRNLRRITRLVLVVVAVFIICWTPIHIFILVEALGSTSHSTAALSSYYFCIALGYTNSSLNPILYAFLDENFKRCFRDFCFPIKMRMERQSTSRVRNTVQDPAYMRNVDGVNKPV

This experiment concerns the target Kappa-type opioid receptor (Cavia porcellus, UniProt P41144). The experiment in a line: Displacement of [3H]U69593 from kappa opioid receptor in guinea pig brain membrane after 150 mins by scintillation counting. A general note: Loss of bound radioactivity is the signal in a displacement assay; it reports binding, not function.

Consider `CN(C(=O)Cc1ccc(Cl)c(Cl)c1)C1CCCCC1N1CCCC1` (configuration not stated), for which the affinity corresponds to a Ki of 0.31 nM.

For the compound `CN(C(=O)Cc1ccccc1)[C@H]1CC[C@@]2(CCCO2)C[C@@H]1N1CCCC1`, the Ki (in general, a dissociation constant, usually derived from enzyme kinetics or from competition with a known ligand) came to 0.97 nM.
